Measured affinities in a library of Ab-95 light chain variants

Target peptide (SARS-CoV-2 spike, HR2 region): PDVDLGDISGINAS

The variants keep the heavy chain, the linker and the frameworks of Ab-95 (scFv order VH, the linker GGGGSGGGGSGGGGS, VL).
VH: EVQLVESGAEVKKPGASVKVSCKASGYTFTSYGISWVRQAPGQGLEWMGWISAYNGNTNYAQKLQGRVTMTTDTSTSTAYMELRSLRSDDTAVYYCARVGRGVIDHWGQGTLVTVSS
VL: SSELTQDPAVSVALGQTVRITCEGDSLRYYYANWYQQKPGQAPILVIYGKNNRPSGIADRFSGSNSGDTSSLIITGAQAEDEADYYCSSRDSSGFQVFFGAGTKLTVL

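Variants in AAYL52 differ from the parent at up to three CDR positions; double and triple changes were sampled at random. Affinity was read by AlphaSeq, a pooled yeast mating assay with surface-displayed partners. Pairs that bind mate more often; barcode pairs of the diploids are counted by sequencing. Scores were corrected for input abundance and mapped to Kd with protein pairs of known affinity run in the same pool. The assay was run in three technical replicates.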

Variants are written as CDR1, CDR2 and CDR3 of the light chain (limits as in the source). Parent: EGDSLRYYYAN, GKNNRPS, SSRDSSGFQVF.
This list gathers variants with a substitution at R90 (VL, numbered from residue 1).
The Kd shown is the geometric mean over detected replicates; a lower Kd is a better binder.
"nd" means that the variant was in the library but no mating with the target was seen in any replicate; the authors take this as a sign of poor binding, and no number exists.
As a blank, each scFv also met three strains without target: over library AAYL52, 28% of these pairings were detected, typically at 8.2 µM and seldom below 800 nM. For each scFv, signals with the empty controls are counted beside the result.

CDR-L1,CDR-L2,CDR-L3,Kd,replicates with signal,empty controls
EGDSDRYYYAN,GKNNRPS,SSFDSSGFQVF,nd,0 of 3,0 of 9
LRDSLRYYYAN,GKNNRPS,SSGDSSGFQVF,nd,0 of 3,3 of 9
EGDSLKYYYAN,GKNNRPS,SSNDSSGFQVF,430 nM,3 of 3,7 of 9
EGDSLRYYYAE,GMNNRPS,SSYDSSGFQVF,nd,0 of 3,2 of 9
EGDSLRYYYAN,GSNNRPS,SSWDSSGTQVF,1.3 µM,3 of 3,3 of 9
EGDSLRYYYAN,GQNNRPS,SSLDSSGFQVF,350 nM,3 of 3,2 of 9
EGDSLRYLYAN,MKNNRPS,SSEDSSGFQVF,18 µM,1 of 3,4 of 9
EGDSLRYYYAN,GKNNRPS,RSDDSSGAQVF,3.2 µM,2 of 3,3 of 9
EGDSLRYIYAN,GKNNRPS,SSWDSSGFQVF,1.2 µM,3 of 3,3 of 9
EGDSLRYYYAN,VKNNRPK,SSDDSSGFQVF,1.7 µM,1 of 3,1 of 9
EGDSLRYYYAN,GKNNRPS,YSIDSSGFQHF,1.6 µM,3 of 3,1 of 9
EEDSLRYYYAN,GKNNRPS,SSQDSSGFQVF,nd,0 of 3,2 of 9
EGDVLRIYYAN,GKNNRPS,SSIDSSGFQVF,nd,0 of 3,1 of 9
EGDSLRYYYAN,GKNKRPS,SSLDSSGFMVF,4.6 µM,2 of 3,0 of 9
EGDSLRYYYAN,GKTNRNS,SSLDSSGFQVF,nd,0 of 3,2 of 9
EGDSLRYYYAN,GKNQRES,SSSDSSGFQVF,17 µM,2 of 3,3 of 9
EGDSLRYYYAN,IKNNRPS,SSADSSGFQGF,4.0 µM,1 of 3,1 of 9
EGDSLEYYYAN,GKNNRPS,SSTDSSGPQVF,nd,0 of 3,0 of 9
EGDVLRYYYAN,GKNNRPS,SSTDSSLFQVF,nd,0 of 3,1 of 9
EGDSLRYYYAT,GKNNRPS,SSKDSSGVQVF,3.5 µM,1 of 3,2 of 9
EGDSLRSRYAN,GKNNRPS,SSGDSSGFQVF,840 nM,3 of 3,2 of 9
EGDSLRYYYAN,GKNNRPS,SSCDSSDFQVF,110 nM,3 of 3,2 of 9
EGSSLRYYWAN,GKNNRPS,SSEDSSGFQVF,1.7 µM,2 of 3,5 of 9
EGDSLRYYYAN,GKNNRPS,PSFDSSGFQNF,180 µM,1 of 3,2 of 9
ELDSLRYYYAN,GKNNRPS,SSDDSSGFQAF,18 µM,1 of 3,1 of 9
EGDVLRYYYAN,GKNNRPS,SSVDSSGFYVF,8.1 µM,1 of 3,2 of 9
EGDSLHYYYAN,GKNNRPS,SSMDSSGNQVF,420 µM,1 of 3,4 of 9
EGDSLRHYYAN,GKNNRPS,SSLDSSGFYVF,93 µM,2 of 3,6 of 9
EGDSWRYYYAN,GKNNRPS,SSSDSSGFAVF,1.6 µM,1 of 3,2 of 9
CGDSLRYYYAN,GKNNRPS,SSHDSSGFQVC,2.5 µM,3 of 3,4 of 9
SGDSLRYYYAN,GKNNRPE,SSPDSSGFQVF,5.1 µM,3 of 3,5 of 9
EGDSLRQYYAN,GKNNRPS,SSCCSSGFQVF,4.5 µM,2 of 3,8 of 9
EGDSLRYTYAN,GKNNRPS,SSDDSSGFQVF,27 nM,3 of 3,3 of 9
EGDSLRYRYAN,GKNNVPS,SSHDSSGFQVF,1.0 µM,3 of 3,2 of 9
EGDSLRYYYAN,GKNTRPS,SSNDSSWFQVF,920 nM,2 of 3,0 of 9
EGDSLRLYYAN,GKNNRPS,SSWDSSGFQVF,11 µM,2 of 3,3 of 9
EGDSLRYYYAN,GKNNNPS,SSPDSPGFQVF,17 µM,3 of 3,3 of 9
EGDSLRYYYAN,EKNNRPS,SSEDSSGFMVF,1.4 µM,3 of 3,0 of 9
EGDSPRYYYAN,GKNNRPK,SSWDSSGFQVF,3.4 µM,1 of 3,1 of 9
EGDSLHYYYVN,GKNNRPS,SSSDSSGFQVF,87 µM,1 of 3,3 of 9
EEDSLRYYYVN,GKNNRPS,SSTDSSGFQVF,2.3 µM,1 of 3,3 of 9
EGDSLRYYYAN,GKNNNPS,CSWDSSGFQVF,4.9 µM,3 of 3,2 of 9
EGDSLRYYIAN,GKNNRPS,KSEDSSGFQVF,nd,0 of 3,0 of 9
EGDSLRYYCAN,GKNNRIS,SSGDSSGFQVF,2.7 µM,1 of 3,0 of 9
EGDQLRYYYAM,GKNNRPS,SSFDSSGFQVF,5.0 µM,1 of 3,2 of 9
EGDSLRYYPAN,GKNNRPS,SSNDSSGFQVF,47 nM,3 of 3,2 of 9
EGDSLRYYYAN,EKNNRPS,SSGQSSGFQVF,17 µM,3 of 3,5 of 9
EGDSLRYYYAN,GKNNRPS,SSMDSSYFQVF,140 µM,2 of 3,2 of 9
EGDSLRYYYAN,GKNNRPS,SSFDSSGFQVV,18 µM,2 of 3,2 of 9
ESDSLRYYYAN,GKNNRES,SSFDSSGFQVF,9.2 µM,1 of 3,1 of 9
EGDSLRYYAAN,GKNTRPS,SSTDSSGFQVF,3.5 nM,3 of 3,4 of 9
EGDSLRYYYAN,GKNNRPS,QSKDSPGFQVF,360 nM,3 of 3,3 of 9
EGDSLRYYYAN,GKNNRPS,SSIDSWGFQEF,130 nM,3 of 3,2 of 9
EMDSLRYYYAN,GKNNRPS,SSMDSSGFQVE,200 µM,1 of 3,2 of 9
EGDSLRYYYAF,GKNNRPS,SSTDISGFQVF,nd,0 of 3,3 of 9
LGDSLRYYYAN,GKNNRPS,SSHDSSWFQVF,2.1 µM,2 of 3,2 of 9
QGDSLRYYYAN,GKNNRPS,SSEDSSGFRVF,6.1 µM,2 of 3,1 of 9
EGDSLRYYYAN,GKNNRPS,PSEDSDGFQVF,5.0 µM,3 of 3,6 of 9
EGDCLRYYYHN,GKNNRPS,SSLDSSGFQVF,34 µM,1 of 3,3 of 9
EGDSKRIYYAN,GKNNRPS,SSCDSSGFQVF,18 µM,1 of 3,4 of 9

Again, the first 6 entries without any signal:

CDR-L1,CDR-L2,CDR-L3,Kd,replicates with signal,empty controls
EGDSDRYYYAN,GKNNRPS,SSFDSSGFQVF,nd,0 of 3,0 of 9
LRDSLRYYYAN,GKNNRPS,SSGDSSGFQVF,nd,0 of 3,3 of 9
EGDSLRYYYAE,GMNNRPS,SSYDSSGFQVF,nd,0 of 3,2 of 9
EEDSLRYYYAN,GKNNRPS,SSQDSSGFQVF,nd,0 of 3,2 of 9
EGDVLRIYYAN,GKNNRPS,SSIDSSGFQVF,nd,0 of 3,1 of 9
EGDSLRYYYAN,GKTNRNS,SSLDSSGFQVF,nd,0 of 3,2 of 9

From the AlphaSeq antibody data of Engelhart et al. 2022 (doi:10.1038/s41597-022-01779-4), copy in the FLAb collection.